The assay relates to A431 cells. Description: FACS of P190-MMB constructs or cetuximab on A431 cells. The format is cell-based, human. The following applies: excess EGF. The text has this: In contrast, 190-MMB as the 4316 construct, binds EGFR and the presence of excess EGF promotes its binding.

Take “cetuximab: neutralizing anti-EGFR monoclonal antibody [reference compound]”: the “effect of EGF on binding to A431” value was “reduced binding”.

These data come from US8278415B2, “Dimeric high affinity EGFR constructs and uses thereof” (Centocor, Inc., priority 2006, dated 2012).
